{"source": "paper PMC4250329", "about": "(Bioorganic & medicinal chemistry letters, 2014)", "test_system": "686LN", "test": "Growth inhibition of HNSCC cell line 686LN", "format": "cell-based", "details": "read-out: 686LN IC50", "note": "pIC50: −log10 of the molar value."}
{"compound": "CC(C)(C)c1nc2c3ccc(F)cc3c3c(=O)[nH]ccc3c2[nH]1", "note": "[compound 6, reference compound]", "values": [{"measurement": "pIC50", "result": "< 5.30"}]}
